Tests used:
[1] = biological target: PARP (Mus musculus, UniProt P11103); assay: whole cell PARP inhibition in UV-activated RAW 264.7 macrophages, PARP activity by ELISA; type: cell-based; conditions: known peak plasma level in TB patients over whole-cell PARP IC50
Protocol: PARP activity was activated in RAW 264.7 macrophage cells (by UV) that were pre-treated with PZA or POA for 1 hour and then PARP activity measured by ELISA as previously.^2 Replicate plates, n=3, mean±se.
PZA is a prodrug activated to POA, the active form. […] Known peak plasma levels of POA and PZA of 300 μM and 500 μM in TB patients treated with PZA,^10 mean the ratio of plasma Cmax/IC50 is 20 for POA while it is only 4 for PZA, so that inhibition of PARP by POA should be dominant when it is formed by PZase.

Amino acid sequences for entries named in this document (tags omitted). Residues count along the entry.
UniProt P11103, 2-1013: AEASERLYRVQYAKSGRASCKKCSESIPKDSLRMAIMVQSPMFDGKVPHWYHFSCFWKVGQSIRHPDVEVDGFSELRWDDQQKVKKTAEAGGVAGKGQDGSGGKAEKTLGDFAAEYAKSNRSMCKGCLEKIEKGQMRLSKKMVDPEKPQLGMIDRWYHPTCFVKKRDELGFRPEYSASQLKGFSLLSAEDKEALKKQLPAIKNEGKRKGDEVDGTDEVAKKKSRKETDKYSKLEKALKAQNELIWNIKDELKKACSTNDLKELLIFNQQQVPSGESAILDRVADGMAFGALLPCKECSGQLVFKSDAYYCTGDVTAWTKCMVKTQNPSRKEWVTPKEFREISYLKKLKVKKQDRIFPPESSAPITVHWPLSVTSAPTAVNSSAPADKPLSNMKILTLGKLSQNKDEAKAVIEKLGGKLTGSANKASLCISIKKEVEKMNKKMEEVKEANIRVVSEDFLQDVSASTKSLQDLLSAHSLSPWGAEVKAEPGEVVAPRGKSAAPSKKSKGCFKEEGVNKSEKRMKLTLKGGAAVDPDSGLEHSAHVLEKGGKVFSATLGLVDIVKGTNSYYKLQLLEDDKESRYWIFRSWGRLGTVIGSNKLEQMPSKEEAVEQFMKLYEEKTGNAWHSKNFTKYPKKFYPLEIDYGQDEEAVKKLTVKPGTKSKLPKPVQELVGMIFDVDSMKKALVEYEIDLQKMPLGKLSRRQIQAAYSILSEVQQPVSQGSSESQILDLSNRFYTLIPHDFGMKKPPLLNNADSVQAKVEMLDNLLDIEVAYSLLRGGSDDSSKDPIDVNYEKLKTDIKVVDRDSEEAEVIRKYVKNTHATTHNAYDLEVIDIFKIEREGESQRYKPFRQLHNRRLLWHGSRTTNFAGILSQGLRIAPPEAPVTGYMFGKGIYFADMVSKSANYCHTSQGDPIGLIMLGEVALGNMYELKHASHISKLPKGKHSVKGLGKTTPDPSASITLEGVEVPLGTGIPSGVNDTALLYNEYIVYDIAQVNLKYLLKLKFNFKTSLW

[2] = in vivo; cited from earlier work

## NC(=O)c1cnccn1 [PZA, pyrazinamide]
[1]
  ratio of plasma Cmax/IC50: 4
[2]
  distribution in human granulomas: wide distribution

From patent US20200009143A1, “REPURPOSING OF CANCER DRUGS FOR TREATMENT OF MYCOBACTERIUM” (STC.UNM, priority 2016, published 2020)
